Assay results: patent publication US6559158B1, “Use of methylnaltrexone and related compounds to treat chronic opioid use side affects” (UR Labs, Inc., priority 1997, dated 2003)

Key:
[1] = system: chronic methadone subjects; experiment: Example 2: side effects, vital signs and opioid withdrawal; format: in vivo, human; settings: methylnaltrexone group n=11, iv up to 0.365 mg/kg
[2] = system: chronic methadone subjects with methadone-induced constipation; experiment: Example 2: double-blind placebo-controlled trial of intravenous methylnaltrexone, laxation response; settings: iv up to 0.365 mg/kg, P<0.0001 vs placebo

C[N@+]1(CC2CC2)CC[C@]23c4c5ccc(O)c4O[C@H]2C(=O)CC[C@@]3(O)[C@H]1C5 [methylnaltrexone, N-methylnaltrexone bromide]
opioid withdrawal symptoms [1]: no opioid withdrawal symptoms observed
side effects [1]: No significant side effects
subjects with immediate laxation response ([2]; methylnaltrexone group n=11, Day 1 afternoon session): Ten
subjects with immediate laxation response ([2]; methylnaltrexone group n=11, Day 2 morning session): 11 subjects
